Yeast mating assay 1: variants of the scFv Ab-14

The target is the same throughout: PDVDLGDISGINAS, from the HR2 region of SARS-CoV-2 spike.

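The starting antibody came from a phage panning campaign against this peptide. In library AAYL49, one, two or three CDR residues were substituted; doubles and triples were drawn at random. The assay is AlphaSeq: two haploid yeast populations carry antibody and antigen on their surface. After mating in shaken culture at 30 °C for 16 h, diploids were selected and their barcode pairs sequenced. A regression on co-assayed BCL2-family reference pairs converts the normalised counts of each replicate to an apparent Kd. Each pool was mated in three replicate cultures.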

Ab-14 is the parent antibody, in scFv form: VH, then a (GGGGS)3 linker, then VL. The light chain is unchanged in all variants.
VH: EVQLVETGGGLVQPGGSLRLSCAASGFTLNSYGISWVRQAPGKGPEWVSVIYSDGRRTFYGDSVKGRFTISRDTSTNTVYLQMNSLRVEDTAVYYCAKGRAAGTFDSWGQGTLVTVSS
VL: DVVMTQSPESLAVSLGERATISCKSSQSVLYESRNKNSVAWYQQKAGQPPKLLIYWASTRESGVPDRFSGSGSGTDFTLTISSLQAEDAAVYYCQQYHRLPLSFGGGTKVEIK

The parent's heavy chain CDRs are GFTLNSYGIS, VIYSDGRRTFYGDSVK, GRAAGTFDS; each variant's own CDRs replace them letter for letter.
Scale: log10 of Kd in nM, estimated from mating counts; low values are strong binders.
Replicates are averaged; those with no signal do not enter the mean.
An entry "n.d." has no value in the source: the pair was not observed among the diploids in that replicate. This suggests poor binding but is not conclusive.
Background: pairings of library AAYL49 with three empty control strains gave a value in 15% of cases (median 4.06, 5th percentile 2.83). Values in that range, when seen in few replicates, are hard to tell from nonspecific mating. For each scFv, signals with the empty controls are counted beside the result, with their mean in brackets.

CDR-H1	CDR-H2	CDR-H3	log10 Kd (nM) by replicate	mean log10 Kd (nM)	empty controls
GFTLNSYGIS	VIYSDGRRTMQGDSVK	GRMAGTFDS	2.45 / 3.61 / n.d.	3.03	1/9 (2.69)
GFTLCSYGIS	VIYSDGRKTFYGDSVK	GRAAGTFDS	n.d. / n.d. / n.d.	n.d.	2/9 (3.36)
YFILNSYGIS	VIYSDIRRTFYGDSVK	GRAAGTFDS	n.d. / n.d. / n.d.	n.d.	0/9
GFHSNSYGIS	VIYSDGRRTFYGDAVK	GRAAGTFDS	n.d. / n.d. / n.d.	n.d.	1/9 (3.90)
GFTLNVYGIS	VIYSDGRRTFYCDSVK	TRAAGTFDS	4.14 / 4.15 / n.d.	4.14	2/9 (5.32)
GFTLNSYGIS	VIYSDGRRTFHGDSRK	GRAAGFFDS	n.d. / n.d. / n.d.	n.d.	1/9 (3.76)
GFTLNSYGDS	VIYSTGRRTFWGDSVK	GRAAGTFDS	n.d. / 4.97 / n.d.	4.97	1/9 (3.05)
GFTLNSYGWS	VIYSDPRRTFYGESVK	GRAAGTFDS	n.d. / n.d. / n.d.	n.d.	0/9
GFTLNSYGIS	VQYSDGRRTFYGDSVK	GRAAGNFDW	n.d. / n.d. / n.d.	n.d.	0/9
GVTLPSYGIS	VIYSDGRRTFYGDSVK	GRAAGTFNS	n.d. / n.d. / n.d.	n.d.	0/9
GFTLNHYWIM	VIYSDGRRTFYGDSVK	GRAAGTFDS	n.d. / n.d. / 5.22	5.22	2/9 (4.84)
GFTLASYGIS	VIYSDGRRTDYGDSVK	GRASGTFDS	3.92 / n.d. / n.d.	3.92	0/9
GFTLNSYGIS	VIASDGRRTFYGDSVK	GRAAGTYDS	n.d. / n.d. / n.d.	n.d.	3/9 (3.20)
GFTLNIYGMS	VIYSDGRRTFYGDSVK	GRAAGTCDS	1.44 / 1.58 / 1.49	1.50	3/9 (3.73)
GFTLNSYGIK	VIYSDGRRYFYGDSVL	GRAAGTFDS	n.d. / n.d. / n.d.	n.d.	3/9 (3.23)
GFTLNMYGIS	VIYSDIRRTFYGDSVK	GRAAGTKDS	n.d. / n.d. / n.d.	n.d.	1/9 (3.34)
GFTLNSYGTS	VIYIDGRRTFYGDWVK	GRAAGTFDS	n.d. / n.d. / n.d.	n.d.	0/9
GFTLNSYGIS	VIYSDGARTFIGDSVK	GRAAGTFDS	n.d. / n.d. / 2.36	2.36	1/9 (3.99)
GFTLNSYGIS	VIYSDGRRTFYGDSVK	GRAQGTDVS	3.28 / n.d. / n.d.	3.28	1/9 (4.26)
GFTLNSYGIS	VIYSDGRRTFYGASVK	GRATGTFDM	4.29 / n.d. / n.d.	4.29	1/9 (1.42)
GFTLNSYGIS	NIYSDGRRTFYGDSDK	GRAAGLFDS	n.d. / n.d. / n.d.	n.d.	2/9 (3.78)
EFTLNSYGIS	VIYSDGARTFYGDSVK	GRAVGTFDS	n.d. / n.d. / n.d.	n.d.	1/9 (3.26)
GFTLNSPGIS	VIYNDGRRTFYGDSVK	GRAAGTFDS	n.d. / n.d. / n.d.	n.d.	0/9
GFTLNSYGIS	VITSDGFRTFYGDSVK	GVAAGTFDS	n.d. / n.d. / n.d.	n.d.	0/9
GDTLNSYGIS	VIYSDGRRTFYGFSVK	VRAAGTFDS	3.57 / n.d. / n.d.	3.57	1/9 (5.78)
GFFLVSYGIS	VIYSDGRRTFYADSVK	GRAAGTFDS	1.96 / 1.78 / 1.78	1.84	0/9
GFNLNWYGIS	VIYSDGRETFYGDSVK	GRAAGTFDS	n.d. / 2.55 / n.d.	2.55	1/9 (3.96)
GITLNSYGIS	VIYSDGRRTFYGDSVK	GRAAGTFDG	n.d. / n.d. / n.d.	n.d.	0/9
GFTLNSYCIS	VIRSDGRRTFYGDSVK	GRAAPTFDS	4.30 / 4.63 / 3.75	4.23	4/9 (4.09)
GITLNSYGIS	VIYSDGRRTFYGDNVK	VRAAGTFDS	n.d. / n.d. / n.d.	n.d.	1/9 (2.41)
GFTLNSYGIS	VIYSDGCRNFYGDSVK	GRAKGTFDS	n.d. / n.d. / n.d.	n.d.	0/9
GFTLNSYGIS	CIYSDGRRTFYGDSVK	GRALGCFDS	n.d. / 4.94 / n.d.	4.94	1/9 (4.14)
GFTLNSYEIS	VIYSDGRRKFYGDSVK	GRAAGTFDS	n.d. / n.d. / n.d.	n.d.	0/9
GFTLNSYGTS	VIYSDGRRTGYGDSVK	GRAAGHFDS	n.d. / n.d. / n.d.	n.d.	1/9 (4.81)

The last 4 entries again:

| CDR-H1 | CDR-H2 | CDR-H3 | log10 Kd (nM) by replicate | mean log10 Kd (nM) | empty controls |
|---|---|---|---|---|---|
| GFTLNSYGIS | VIYSDGCRNFYGDSVK | GRAKGTFDS | n.d. / n.d. / n.d. | n.d. | 0/9 |
| GFTLNSYGIS | CIYSDGRRTFYGDSVK | GRALGCFDS | n.d. / 4.94 / n.d. | 4.94 | 1/9 (4.14) |
| GFTLNSYEIS | VIYSDGRRKFYGDSVK | GRAAGTFDS | n.d. / n.d. / n.d. | n.d. | 0/9 |
| GFTLNSYGTS | VIYSDGRRTGYGDSVK | GRAAGHFDS | n.d. / n.d. / n.d. | n.d. | 1/9 (4.81) |

From the AlphaSeq antibody data of Engelhart et al. 2022 (doi:10.1038/s41597-022-01779-4), copy in the FLAb collection.